This assay has as its target CCR5 (Homo sapiens, UniProt P51681). As to the kind of experiment: CCR5-mediated CCF (cell-cell fusion) assay, Hela-R5 / CEM-NKr-CCR5-Luc luciferase readout. The assay is classed as cell-based. On the set-up: host or cells: CEM-NKr-CCR5-Luc cells, co-cultured with Hela-R5 cells expressing gp160 and Tat. The method, then: The capacity for novel compounds of the present invention to bind to the CCR5 receptor and thereby antagonize CCR5 function can be evaluated with assay systems known in the art.
Hela-R5 cells (express gp160 from R5-tropic virus and HIV-1 Tat) were plated in 384 well white culture plates (BD Bioscience, Palo Alto, Calif.) at 7.5×10^3 cells per well in phenol red-free Dulbecco's Modified Eagle Medium (DMEM) supplemented with 10% FBS, 1× Pen-Strep, 300 μg/ml G418, 100 μg/ml hygromycin, and 1 μg/ml Doxycycline (Dox) (BD Bioscience, Palo Alto, Calif.), using Multimek (Beckman, Fullerton, Calif.) and incubated at 37° C. overnight to induce the expression of gp160. Ten μl diluted compounds in medium containing 5% DMSO were added to the cells, followed by the addition of CEM-NKr-CCR5-Luc (obtained from NIH AIDS Research & Reference Reagents Program) that expresses CD4 and CCR5 and carries a HIV-2 long terminal repeat (LTR)-driven luciferase reporter gene at 1.5×10^4 cells/15 μL/well and incubated for 24 hrs. At the end of co-culture, 15 μl of Steady-Glo luciferase substrate was added into each well, and the cultures were sealed and gently shaken for 45 min. The luciferase activity were measured for 10 sec per well as luminescence by using 16-channel TopCount NXT (PerkinElmer, Shelton, Conn.) with 10 min dark adaptation and the readout is count per second (CPS). […]

Chains of the proteins cited; added tags and fusions are not shown.
UniProt P51681, whole entry: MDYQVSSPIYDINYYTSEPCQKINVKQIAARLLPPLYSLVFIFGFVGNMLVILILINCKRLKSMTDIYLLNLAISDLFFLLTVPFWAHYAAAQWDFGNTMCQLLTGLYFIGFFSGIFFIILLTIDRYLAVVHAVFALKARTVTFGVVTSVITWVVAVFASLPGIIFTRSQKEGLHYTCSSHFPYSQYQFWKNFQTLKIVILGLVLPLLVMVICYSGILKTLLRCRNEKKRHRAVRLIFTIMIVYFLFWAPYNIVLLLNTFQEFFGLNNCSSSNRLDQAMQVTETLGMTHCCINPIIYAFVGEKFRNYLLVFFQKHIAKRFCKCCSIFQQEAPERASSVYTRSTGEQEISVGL

Structures are written as SMILES.

As usually defined, the IC50 is the concentration needed to halve the response being measured. A low value points to higher potency. `Cc1cc(C#N)nc(C)c1C(=O)N1CC2CN(CCC(c3ccccc3)C3CCN(S(C)(=O)=O)CC3)CC2C1` (stereo not shown) [V-24, 5-{5-[3-(1-Methanesulfonyl-piperidin-4-yl)-3-phenyl-propyl]-hexahydro-pyrrolo[3,4-c]pyrrole-2-carbonyl}-4,6-dimethyl-pyridine-2-carbonitrile] had an IC50 of 1.3 nM.

Values taken from patent publication US7625905B2, “Octahydro-pyrrolo[3,4-c]pyrrole CCR5 receptor antagonists” (Roche Palo Alto LLC, priority 2006, dated 2009).
